The text below walks through data of article PMC7230162, “Syntheses and Glycosidase Inhibitory Activities, and in Silico Docking Studies of Pericosine E Analogs Methoxy-Substituted at C6” (Marine Drugs, 2020).

Chains of the proteins cited; added tags and fusions are not shown. Residues count along the entry.
UniProt C0HJB3, 563-981: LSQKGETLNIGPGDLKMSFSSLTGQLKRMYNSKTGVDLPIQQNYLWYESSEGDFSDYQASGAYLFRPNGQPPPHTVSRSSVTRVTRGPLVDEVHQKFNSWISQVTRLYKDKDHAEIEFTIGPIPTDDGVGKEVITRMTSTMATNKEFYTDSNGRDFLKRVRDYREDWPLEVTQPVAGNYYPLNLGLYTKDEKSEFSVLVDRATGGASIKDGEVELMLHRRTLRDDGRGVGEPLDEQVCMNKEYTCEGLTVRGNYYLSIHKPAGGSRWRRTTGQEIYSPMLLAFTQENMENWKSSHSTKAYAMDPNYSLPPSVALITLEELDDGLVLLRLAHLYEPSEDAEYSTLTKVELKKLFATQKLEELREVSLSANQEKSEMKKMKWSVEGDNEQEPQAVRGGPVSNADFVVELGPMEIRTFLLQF
UniProt C0HJB3, 1-562: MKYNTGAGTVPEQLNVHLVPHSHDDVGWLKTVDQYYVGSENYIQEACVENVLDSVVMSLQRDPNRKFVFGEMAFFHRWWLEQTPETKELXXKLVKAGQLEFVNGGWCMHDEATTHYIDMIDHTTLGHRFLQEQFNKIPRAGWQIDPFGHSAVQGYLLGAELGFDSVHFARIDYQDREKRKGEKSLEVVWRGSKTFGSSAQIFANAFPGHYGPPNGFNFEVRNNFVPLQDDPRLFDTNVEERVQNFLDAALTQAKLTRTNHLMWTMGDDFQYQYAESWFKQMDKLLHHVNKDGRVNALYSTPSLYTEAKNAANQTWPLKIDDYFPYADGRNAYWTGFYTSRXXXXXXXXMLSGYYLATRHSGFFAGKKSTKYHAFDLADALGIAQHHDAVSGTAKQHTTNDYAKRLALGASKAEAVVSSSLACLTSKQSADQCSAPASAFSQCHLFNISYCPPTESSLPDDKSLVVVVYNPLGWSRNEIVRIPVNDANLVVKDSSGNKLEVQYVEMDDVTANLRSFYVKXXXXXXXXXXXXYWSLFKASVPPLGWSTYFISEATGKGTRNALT

The target in this assay is T1, α-mannosidase (Jack Bean) (Canavalia ensiformis, UniProt C0HJB3).
T1 construct: purchased Sigma-Aldrich Co., LLC lot 055K7047 (catalogue number not given)
Briefly: biochemical. The method, then: Infrared (IR) spectra were recorded on a 1720X Fourier transformation-infrared (FT-IR) spectrometer (Perkin Elmer, MA, USA) or an IRAffinity-1S FT-IR spectrometer (Shimadzu, Kyoto, Japan). High-resolution mass spectra (HRMS) were recorded on a JMS-700 (2) mass spectrometer (JEOL, Tokyo, Japan). Nuclear magnetic resonance (NMR) spectra were recorded at 27 °C on 400-MR-DD2 (Agilent Technologies, CA, USA) and 600-DD2 (Agilent Technologies, CA, USA) instruments in CDCl3 or acetone-d6 using tetramethylsilane as an internal standard. Specific rotations were measured with a JASCO P-2300 spectrometer (JASCO Co., Tokyo, Japan). Liquid column chromatography was conducted on silica gel (Fuji Silysia FL-60D). Analytical thin layer chromatography (TLC) was performed on Silicagel 70 F254 plates (Wako Pure Chemical Industries, Tokyo, Japan), and compounds were detected by dipping the plates into an ethanolic solution of phosphomolybdic acid followed by heating. Microwave (MW)-aided reactions were carried out in a Biotage Initiator® reactor (PartnerTech Atvidaberg AB for Biotage Sweden AB, Uppsala, Sweden). NaBH4 and trifluoroacetic acid (TFA) were purchased from Wako Pure Chemical Industries (Wako Pure Chemical Industries, Tokyo, Japan). BF3·Et2O was purchased from Sigma-Aldrich Co., LLC (St. Lewis, MO, USA). DMP was purchased from TCI (Tokyo Chemical Industry Co., Ltd., Tokyo, Japan). […] Deoxygalactonojirimycin was purchased from Funakoshi Co., Ltd., Tokyo, Japan).
After 20 min incubation at 37 °C, the reaction was quenched by addition of Na2CO3 solution (0.5 M, 100 μL). The amount of liberated p-nitrophenol was measured colorimetrically at 400 nm (optical density at 400 nm: ODtest).
Assays of β-glucosidase, α-mannosidase, β-mannosidase, and β-galactosidase inhibitory activities were carried out as above using p-nitrophenyl-β-D-glucopyranoside, p-nitrophenyl-α-D-mannopyranoside, p-nitrophenyl-β-D-mannopyranoside, and p-nitrophenyl-β-D-galactopyranoside as substrates.
For `COC(=O)C1=C[C@H](O)[C@H](O)[C@H](O[C@H]2C(C(=O)OC)=C[C@@H](O)[C@@H](O)[C@@H]2O)[C@@H]1OC` [(−)-18], the IC50 (as a rule, the concentration needed to halve the response being measured) is over 7.8 mM. As to `COC(=O)C1=CC(O)C(O)C(O)C1OC1C(OC)C(C(=O)OC)=CC(O)C1O` (single isomer, unassigned; (-)) [(−)-9], the IC50 is over 7.8 mM. As to `COC(=O)C1=CC(O)C(O)C(O)C1OC1C(OC)C(C(=O)OC)=CC(O)C1O` (single isomer, unassigned; (-)) [(−)-24], the IC50 is over 7.8 mM. For `COC(=O)C1=C[C@@H](O)[C@@H](O)[C@@H](O[C@H]2C(C(=O)OC)=C[C@@H](O)[C@@H](O)[C@@H]2O)[C@@H]1OC` [(−)-21] the value was over 7.8 mM; for `OC[C@H]1NC[C@H](O)[C@@H](O)[C@@H]1O` [Deoxynojirimycin (DNJ), 1-Deoxynojirimycin, reference compound], over 7.8 mM.
